Source: PubChem BioAssay AID2130 (The Scripps Research Institute Molecular Screening Center, 2009)
This is a selection; strong and weak results do not stand in their true shares. Calls of active or inactive are those of the source.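 The calls were made as follows: active = inhibition above the campaign mean of all compounds plus 3 SD (cut at about 26% in these data); inactive = the rest.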

Protein sequences, listed by entry. Tags and fused reporters are not part of them.
UniProt Q9Y570, whole entry: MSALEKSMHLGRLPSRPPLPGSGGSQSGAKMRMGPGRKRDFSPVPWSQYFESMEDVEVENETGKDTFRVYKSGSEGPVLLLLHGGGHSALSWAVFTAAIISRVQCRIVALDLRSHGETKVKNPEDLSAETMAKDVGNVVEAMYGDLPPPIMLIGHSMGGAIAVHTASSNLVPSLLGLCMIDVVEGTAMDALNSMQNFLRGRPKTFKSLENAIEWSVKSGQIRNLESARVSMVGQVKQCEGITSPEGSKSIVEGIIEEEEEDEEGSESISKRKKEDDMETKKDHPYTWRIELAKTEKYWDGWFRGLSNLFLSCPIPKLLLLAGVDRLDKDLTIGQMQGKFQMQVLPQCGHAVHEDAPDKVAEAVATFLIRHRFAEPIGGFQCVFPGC

Target: Protein phosphatase methylesterase 1 (Homo sapiens) (UniProt Q9Y570)
Assay: human PME-1 methylesterase blockers – biochemical, fluorescence polarization, FP-Rh probe, HTS, primary screen (AID 2130);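 also: competitive labeling of PME-1 active site by serine hydrolase directed probe; 0% = PME-1 with DMSO and 100% = wells lacking PME-1 enzyme; inhibitors block probe labeling so polarization falls and inhibition rises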
Settings: recombinant PME-1, FP-Rh probe fluorescence polarization; at 5.9 µM; active compounds read high

| Structure (SMILES) | inhibition |
| --- | --- |
| Cc1cc(C)cc(N(C(=O)c2ccccc2)C2CCN(C(=O)OC(C)(C)C)CC2)c1 | inactive: 1.05% |
| O=C(NCC1(N2CCCCC2)CCCCC1)c1ccc(Cl)nc1 | inactive: -2.19% |
| O=C(NCC1(N2CCOCC2)CCCCC1)c1cc2ccccc2o1 | inactive: -2.11% |
| COc1ccc(Cl)cc1C(=O)NCC1(N2CCOCC2)CCCCC1 | inactive: 2.01% |
| N#CC1(Nc2ccccc2)CCN(Cc2ccccc2)CC1 | inactive: -4.44% |
| O=C(NCC1(N2CCCCC2)CCCCC1)c1ccc(Cl)s1 | inactive: -3.66% |
| O=C(OC1CN2CCC1CC2)C1c2ccccc2Oc2ccccc21 (stereo unspecified) | inactive: -7.82% |
| CCOC(=O)N1CCC(Nc2ccc(OC)cc2)CC1 | inactive: 2.03% |
| COc1ccc(C(=O)NCC2(N3CCCCC3)CCCCC2)c(OC)c1OC | inactive: 0.4% |
| CC(C)(C)OC(=O)N1CCC(N(C(=O)c2ccccc2)c2ccc(F)cc2)CC1 | inactive: -2.87% |
| COc1ccc(C(=O)NCC2(N3CCCCC3)CCCCC2)cc1 | inactive: -3.81% |
| O=C(NCC1(N2CCCCC2)CCCCC1)c1cccs1 | inactive: 1.06% |
| O=C(NCC1(N2CCCCC2)CCCCC1)c1ccc(=O)[nH]c1 | inactive: -0.1% |
| CSc1ccccc1C(=O)NCC1(N2CCCCC2)CCCCC1 | inactive: -6.49% |
| Cc1ccc(OCC(C)C)c(CN(CCCl)CCCl)c1 | inactive: 6.62% |
| CCOC(=O)N1CCC(Nc2cccc(C)c2)CC1 | inactive: 0.18% |
| CCOc1ccc(C)cc1CN(CCCl)CCCl | inactive: 0.53% |
| COc1ccc(NC2CCN(CCc3ccccc3)CC2)c(OC)c1 | inactive: 3.08% |
| O=C(NCC1(N2CCCCC2)CCCCC1)c1ccc(F)cc1 | inactive: -5% |
| O=C(NCC1(N2CCCCC2)CCCCC1)c1cccc(C(F)(F)F)c1 | inactive: -4.45% |
| COc1cc(C(=O)NCC2(N3CCCCC3)CCCCC2)ccc1OC(F)F | inactive: -3.99% |

| Structure (SMILES) | inhibition |
| --- | --- |
| O=C(NCC1(N2CCOCC2)CCCCC1)c1cc(=O)[nH]c2ccccc12 | inactive: -9.96% |
| CN1CCN(CCOC(=O)C(O)(c2ccccc2)c2ccccc2)CC1 | inactive: 0.25% |
| COc1ccc(NC2CCN(C(=O)OC(C)(C)C)CC2)cc1 | inactive: -14.3% |
| O=C(NCC1(N2CCCCC2)CCCCC1)c1ccc(OC(F)F)cc1 | inactive: 1.77% |
| N#CC1(Nc2ccccc2)CCN(CCc2ccccc2)CC1 | inactive: 1.88% |
| CCN1CCC(Nc2ccc(Cl)cc2)CC1 | inactive: -0.92% |
| O=C(NCC1(N2CCCCC2)CCCCC1)c1cccc([N+](=O)[O-])c1 | inactive: 2.87% |
| CN1CCC(Nc2cccc(F)c2)CC1 | inactive: 3.1% |
| O=C(NCC1(N2CCCCC2)CCCCC1)c1cncc(Br)c1 | inactive: 0.34% |
| CC(C)c1ccc(NC2CCN(C(=O)OC(C)(C)C)CC2)cc1 | inactive: 1.87% |
| CN(C)c1cccc(C(=O)NCC2(N3CCCCC3)CCCCC2)c1 | inactive: -4.29% |
| COc1ccc(CN(CCCl)CCCl)cc1Cl | inactive: -0.74% |
| COc1cc(OC)c(C(=O)NCC2(N(C)C)CCCCC2)cc1OC | inactive: 1.93% |
| CCOC(=O)N1CCC(Nc2ccc(C)cc2)CC1 | inactive: 0.94% |
| N/C(=N\O)c1c(N)no[n+]1[O-] | inactive: -6.11% |
| CCc1cc(C(=O)NCC2(N3CCCCC3)CCCCC2)sc1C | inactive: -9.45% |
| O=C(OC1CN2CCC1CC2)C1c2ccccc2C=Cc2ccccc21 (stereo unspecified) | inactive: -5.24% |
| O=C(NCC1(N2CCOCC2)CCCCC1)c1cc(Br)ccc1Cl | inactive: 4.57% |
| COc1ccc(C(=O)NCC2(N3CCOCC3)CCCCC2)cc1OC | inactive: 1.1% |
| CN(C)C1(CNC(=O)c2cccc(C#N)c2)CCCCC1 | inactive: 0.79% |
| CCCN1CCC(Nc2cc(OC)cc(OC)c2)CC1 | inactive: 4.55% |

| Structure (SMILES) | inhibition |
| --- | --- |
| c1ccc(CN2CCC(Nc3ccccc3)CC2)cc1 | inactive: 4.42% |
| N#Cc1ccc(C(=O)NCC2(N3CCCCC3)CCCCC2)cc1 | inactive: -3.18% |
| CC(C)(C)OC(=O)N1CCC(N(C(=O)c2ccccc2)c2ccc(Cl)cc2)CC1 | inactive: 1.68% |
| CCN1CCC(Nc2cccc(F)c2)CC1 | inactive: -2.44% |
| CN(C)c1ccc(C(=O)NCC2(N3CCCCC3)CCCCC2)cc1 | inactive: -3.85% |
| O=C(NCC1(N2CCCCC2)CCCCC1)c1ccco1 | inactive: -8.15% |
| COc1cc(OC)cc(C(=O)NCC2(N3CCCCC3)CCCCC2)c1 | inactive: -3.06% |
| Fc1ccccc1NC1CCN(Cc2ccccc2)CC1 | inactive: -2.9% |
| Cc1ccc(C(=O)NCC2(N3CCCCC3)CCCCC2)o1 | inactive: -1.69% |
| COc1cc(OC)cc(C(=O)NCC2(N3CCOCC3)CCCCC2)c1 | inactive: 0.24% |
| COc1cccc(C(=O)N(c2cc(C)cc(C)c2)C2CCN(C(=O)OC(C)(C)C)CC2)c1 | inactive: 4.1% |
| CCC(CO)(C(=O)OC1CN2CCC1CC2)c1ccccc1 (stereo unspecified) | inactive: -1.62% |
| CN1CCC(Nc2ccc(Cl)cc2)CC1 | inactive: 0.75% |
| CCCOc1ccc(C)cc1CN(CCCl)CCCl | inactive: -0.55% |
| CN1CCC(Nc2ccc(F)c(Cl)c2)CC1 | inactive: 4.2% |
| CCOc1ncccc1C(=O)NCC1(N2CCOCC2)CCCCC1 | inactive: -1.02% |
| O=C(O)C1(Nc2ccccc2)CCN(Cc2ccccc2)CC1 | inactive: -3.22% |
| CC(C)(C)OC(=O)N1CCC(Nc2ccccc2)CC1 | inactive: -5.64% |
| CCCOc1ccc(C(=O)NCC2(N(C)C)CCCCC2)cc1 | inactive: -1.35% |
